Assay results from US6380198B1 (Laboratoire Medidom S.A., priority 1997, dated 2002).

Test system: cornea (corneal thickness)
Conditions: rabbit, in vivo

Corneal thickness (mm): 2 hours: 0.394 mm
SMILES: COc1ccc([C@@H]2Sc3ccccc3N(CCN(C)C)C(=O)[C@@H]2OC(C)=O)cc1 [diltiazem]
